# Binding of CDR-mutated scFvs to a peptide of the spike HR2 region

Reference: Engelhart et al. 2022, doi:10.1038/s41597-022-01779-4. File: FLAb, binding data.

All variants were tested on one target, the spike HR2 peptide PDVDLGDISGINAS (SARS-CoV-2).

Ab-95 is the parent antibody, in scFv form: VH, then three GGGGS repeats, then VL. The heavy chain is unchanged in all variants.
VH: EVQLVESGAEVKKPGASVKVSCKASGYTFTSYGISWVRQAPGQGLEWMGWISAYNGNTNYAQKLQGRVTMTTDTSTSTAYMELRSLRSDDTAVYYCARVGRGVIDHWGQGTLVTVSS
VL: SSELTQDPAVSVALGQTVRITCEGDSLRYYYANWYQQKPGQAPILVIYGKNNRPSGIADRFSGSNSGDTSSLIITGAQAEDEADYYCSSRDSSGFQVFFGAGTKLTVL

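The parent was found by panning a naive human phage display library on the peptide. Library AAYL52 holds single substitutions and randomly drawn double and triple substitutions in the CDRs. The scFvs were displayed on barcoded MATa yeast, the peptide on MATalpha yeast. After mating in shaken culture at 30 °C for 16 h, diploids were selected and their barcode pairs sequenced. The ratio of observed to expected reads was calibrated, replicate by replicate, on BCL2-family standards whose Kd was known from biolayer interferometry. The assay was run in three technical replicates.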

Variants are written as CDR1, CDR2 and CDR3 of the light chain (limits as in the source). Parent: EGDSLRYYYAN, GKNNRPS, SSRDSSGFQVF.
The read-out is the apparent dissociation constant on a log10 scale (nM): the lower, the stronger.
Averages over replicates are reported, and they cover detected replicates only.
An entry "ND" has no value in the source: the pair was not observed among the diploids in that replicate. This suggests poor binding but is not conclusive.
In this assay the parent's reference entry averaged 2.31; its copy inside this library read 2.25.
Empty control strains, which show no peptide, gave a signal in 28% of pairings with library AAYL52; the median was 3.91 and 95% of these signals were weaker than 2.90. No background was subtracted. Also given: how often the same scFv was detected with the empty control strains, with their mean in brackets.

| CDR-L1 | CDR-L2 | CDR-L3 | replicates, log10 nM | mean log10 Kd (nM) | control signals |
|---|---|---|---|---|---|
| EGDSIRYYAAN | GWNNRPS | SSRDSSGFQVF | 3.14 / 2.87 / 2.67 | 2.89 | 6/9 (3.92) |
| EGDSLRYGYAN | GKNNRPS | SSRDSSGFQNG | ND / 2.45 / ND | 2.45 | 0/9 |
| EGDSLRYYYAN | GKNNRPE | SSRDSSGFQVF | 1.63 / 1.47 / 1.26 | 1.45 | 2/9 (4.35) |
| EGESLRYYYAN | GNNLRPS | SSRDSSGFQVF | 1.96 / 1.74 / 1.45 | 1.72 | 7/9 (3.90) |
| EGDSLRYYYAN | QKNNRPS | SSNDSSGPQVF | ND / 4.28 / ND | 4.28 | 3/9 (3.50) |
| EGDSLRRYYAN | GKNNRPS | SSRTSRGFQVF | 2.91 / 3.06 / 3.99 | 3.32 | 5/9 (3.85) |
| EGDSLRYYYAN | GENNRPS | SSRDSSGFSVF | 2.06 / 2.05 / 2.05 | 2.06 | 3/9 (3.51) |
| EGDSLRYYYAR | GKNNRPS | SSRASSMFQVF | 3.61 / 2.22 / ND | 2.91 | 1/9 (3.33) |
| EGDSLRYYYAN | RKANRPV | SSRDSSGFQVF | ND / ND / ND | ND | 1/9 (3.97) |
| EGDLLRYYYAN | AKNNRPS | SSRDSSGFQCF | 3.99 / 5.88 / 4.64 | 4.84 | 2/9 (4.34) |
| ENDSLRYYYWN | GKNNCPS | SSRDSSGFQVF | 5.41 / ND / ND | 5.41 | 3/9 (3.77) |
| EGDSLSYYYAN | GKNNVPS | SSRQSSGFQVF | 4.70 / 4.73 / ND | 4.72 | 4/9 (3.89) |
| EGDHERYYYAN | GKSNRPS | SSRDSSGFQVF | 4.85 / ND / ND | 4.85 | 2/9 (3.66) |
| EGDSLRYYAAN | GKNNRPS | SSRDCSGFQRF | 2.36 / 1.78 / 2.70 | 2.28 | 3/9 (3.28) |
| EGDDLRNYYAN | GKNNRPS | SSRDMSGFQVF | 2.69 / 2.69 / 2.44 | 2.60 | 2/9 (3.82) |
| EGDSLRYYYAN | GKNNRSS | SSHDSSGFTVF | 3.42 / ND / ND | 3.42 | 3/9 (4.26) |
| CGDSLRYYYAN | GKNNREI | SSRDSSGFQVF | 3.14 / 2.90 / 3.74 | 3.26 | 4/9 (4.33) |
| EGDSFRYYYAN | GKNNMPS | SSRDSSGFQVF | ND / ND / ND | ND | 1/9 (3.41) |
| TGDSLRYYYAN | GKNNRPS | SSRMSSGFQVF | 4.28 / ND / ND | 4.28 | 0/9 |
| EGDSLRYYYAN | EKNNRPS | SSRDQPGFQVF | ND / 3.41 / 2.72 | 3.07 | 2/9 (3.47) |
| EGDSLRYYYAN | GKNNRPS | SSADSAGFQMF | 3.28 / 2.39 / 3.25 | 2.97 | 0/9 |
| EGDSLRYYDAN | GSNNRPS | SSRDSSMFQVF | 2.27 / 2.71 / 2.00 | 2.33 | 3/9 (3.46) |
| EGDSLRMYYAN | GKNNPPS | SSGDSSGFQVF | ND / ND / 3.81 | 3.81 | 0/9 |
| EGDSLRYYYAN | GKNNKPH | SSRDSSGFQVF | 2.29 / 2.38 / 1.75 | 2.14 | 3/9 (4.00) |
| EGDSLRYYPAN | GKNNRPS | SSRDVSQFQVF | 2.34 / 2.56 / ND | 2.45 | 0/9 |
| EGDSLRDYYAN | EKNNRPS | SSCDSSGFQVF | ND / ND / ND | ND | 0/9 |
| EGDSLRYYFMN | GKNNRPS | SSRVSSGFQVF | 3.93 / ND / ND | 3.93 | 2/9 (4.07) |
| EGDTLRYYYAN | GCNNRPS | SSWDSSGFQVF | ND / ND / ND | ND | 2/9 (4.02) |
| EGDSLRYYLAN | GKNNRIS | ISRDSSGFQVF | ND / ND / 3.55 | 3.55 | 1/9 (2.97) |
| KGDQLRYYYAN | GKNNRPS | SSRDSSGFQIF | 3.50 / 3.83 / ND | 3.66 | 0/9 |
| EGHSLRYYYWN | GKNNRPS | SSRDSSPFQVF | ND / ND / 4.30 | 4.30 | 1/9 (3.55) |
| EGDVLRPYYAN | GKNNRPS | NSRDSSGFQVF | 4.27 / 3.26 / 4.61 | 4.05 | 1/9 (2.92) |
| EGDSLRYYYAN | GKNNRPS | SSRTSNGPQVF | ND / 4.51 / ND | 4.51 | 3/9 (4.96) |

Repeated from above, the 4 best binders with a signal in all replicates:

{"CDR-L1": "EGDSLRYYYAN", "CDR-L2": "GKNNRPE", "CDR-L3": "SSRDSSGFQVF", "replicates, log10 nM": "1.63 / 1.47 / 1.26", "mean log10 Kd (nM)": "1.45", "control signals": "2/9 (4.35)"}
{"CDR-L1": "EGESLRYYYAN", "CDR-L2": "GNNLRPS", "CDR-L3": "SSRDSSGFQVF", "replicates, log10 nM": "1.96 / 1.74 / 1.45", "mean log10 Kd (nM)": "1.72", "control signals": "7/9 (3.90)"}
{"CDR-L1": "EGDSLRYYYAN", "CDR-L2": "GENNRPS", "CDR-L3": "SSRDSSGFSVF", "replicates, log10 nM": "2.06 / 2.05 / 2.05", "mean log10 Kd (nM)": "2.06", "control signals": "3/9 (3.51)"}
{"CDR-L1": "EGDSLRYYYAN", "CDR-L2": "GKNNKPH", "CDR-L3": "SSRDSSGFQVF", "replicates, log10 nM": "2.29 / 2.38 / 1.75", "mean log10 Kd (nM)": "2.14", "control signals": "3/9 (4.00)"}